The source of these data is patent US20040161391A1, “Ascorbic acid compounds as bleaching agents” (L'OREAL, priority 2002, published 2004).

The data set in a line: Cytotoxicity by estimating the incorporation of leucine. It is filed as cell-based. As to the method: The following were determined for each test compound:
the cytotoxicity, by estimating the incorporation of leucine, […]

As to “methyl 2,3-bis-acetate of ascorbic acid [Compound T1]”, the Cytotoxicity entry is on record as “No”.
